Molecules are shown by their SMILES.

Sequences of proteins named here, by UniProt entry; tags and fusion partners are left off.
UniProt P14842, whole entry: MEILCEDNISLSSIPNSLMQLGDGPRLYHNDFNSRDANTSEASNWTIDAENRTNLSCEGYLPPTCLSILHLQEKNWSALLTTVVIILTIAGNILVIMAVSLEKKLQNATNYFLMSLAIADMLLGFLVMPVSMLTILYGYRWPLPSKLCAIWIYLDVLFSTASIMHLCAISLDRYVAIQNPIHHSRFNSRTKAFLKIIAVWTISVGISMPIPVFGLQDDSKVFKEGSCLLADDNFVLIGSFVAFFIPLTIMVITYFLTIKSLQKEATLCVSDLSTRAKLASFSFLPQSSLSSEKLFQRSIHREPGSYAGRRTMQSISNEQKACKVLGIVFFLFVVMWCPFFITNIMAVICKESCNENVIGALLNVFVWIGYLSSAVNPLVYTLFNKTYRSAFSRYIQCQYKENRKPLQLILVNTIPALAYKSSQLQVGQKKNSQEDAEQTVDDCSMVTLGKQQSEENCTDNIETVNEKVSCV

EC50 data for 1 molecule are collected here from BindingDB's records for doi:10.1021/jm020153s (Purdue University, 2002).

The assay concerns the target 5-hydroxytryptamine receptor 2A (Rattus norvegicus, UniProt P14842). Kind of assay: Functional potency at the rat 5-hydroxytryptamine 2A receptor as effective concentration EC50 for stimulating Phosphoinositide accumulation.

For `CCN(CC)C(=O)[C@@H]1C=C2c3cccc4[nH]cc(c34)C[C@H]2N(C)C1` [(4R,7R)-N,N-diethyl-6-methyl-6,11-diazatetracyclo[7.6.1.0^{2,7}.0^{12,16}]hexadeca-1(16),2,9,12,14-pentaene-4-carboxamide], the EC50 was 15 nM.

Usually EC50 stands for the concentration needed to bring the measured effect to its halfway point.
